Source: PubChem BioAssay (National Center for Advancing Translational Sciences (NCATS))
Mito fusion yeast: inhibitors of mitochondrial division or activators of mitochondrial fusion. S. cerevisiae fusion-defective mutant growth rescue, CellTiterGlo 48 h. Potency, µM (doses to about 46.1 µM), for the others: at the highest dose growth rescue (activation), hits mostly activators. hit rate 0.23% among 320,000; also: potency is read from the fitted curve at half-maximal effect; % of control where 0% means no effect; nearly all actives have a fitted effect of over 45% in size
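Compounds are tested for their ability to restore growth of mitochondrial fusion-defective yeast strains at non-permissive 37C in YPEG medium over 48 hours. Viability is quantified by luciferase luminescence.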
Nrf2 activator: Nrf2 pathway activation; AREc32 ARE-luciferase reporter (MCF7-derived line), luminescence, 24 h; Potency, µM (series often up to 46.1 µM), without a hit: at the top dose activation, most hits filed as activators; hit rate 0.31% among 410,000; AID 624171; also: potency is read from the fitted curve at half-maximal effect; % of control where 0% means no effect; nearly all actives have a fitted effect of over 65% in size
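Luminescent ARE reporter assay in AREc32_Fluc cells: overnight plating at 37 deg C, 24 hr compound incubation, Steady-Glo added, 30 min RT before reading.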
Nrf2 inh: inhibitors of Nrf2 signaling. AID 504444. Potency, µM (doses to about 46 µM), without a hit: at the highest dose activity change, negative = inhibition, usual class: inhibitors. A549 ARE-Fluc reporter, luciferase luminescence, 18-24 h. hit rate 2.1% among 360,000; also: potency is read from the fitted curve at half-maximal effect; % is scaled to controls: 0 for no effect and ±100 for the full control effect; nearly all actives have a fitted effect of over 60% in size
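In this cell-based qHTS, ARE-driven firefly luciferase in A549 cells reports Nrf2 activity; the luminescent signal after BugLite lysis is the measured value, with a prior CellTiter-Fluor read for cell health.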
A549 viability: A549 cytotoxicity, counter-screen for Nrf2 inhibitors | hit rate 0.16% among 390,000 | A549 ARE-Fluc cells, CellTiter-Fluor viability, 18-24 h | Potency, µM (doses to about 46 µM), inactives show top-dose activity change, negative = cytotoxicity, most hits filed as inhibitors; also: potency is read from the fitted curve at half-maximal effect; % is scaled to controls: 0 for no effect and ±100 for the full control effect
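A549 ARE_Fluc cells in 5% FBS OPTI-MEM were exposed to compounds in concentration-response for 18-24 h at 37 deg C. Viability was read by CellTiter-Fluor fluorescence (Ex 405/Em 525) after 30 min, before the luciferase read.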
miR-21 reporter: miR-21 reporter, rising signal; HeLa miR-21 FLuc reporter, luciferase, 48 h; Potency, µM (doses to about 38.3 µM), for inactives: at the highest dose reporter change, positive = more light; 340,000 tested, under 10 active; AID 2288; active = well fitted rising curve with a large enough effect; inconclusive = small, poorly fitted or top-dose-only effect; inactive = no such curve, though single readings can be large or run the other way;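 further: % of control where 0% means no effect; miR-21 action dims this reporter so a rising signal means less miR-21 action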
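HeLa cells stably expressing CMV-driven firefly luciferase with a downstream miR-21 binding sequence, endogenously expressing miR-21, were treated with titrations (up to about 40uM final) for 48 hours at 37 degree Celsius. Luciferase luminescence was read after lysis.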
GRP78 ERSR act: ER stress response induction in glioma; U87-MG GRP78 promoter luciferase reporter, 16 h; Potency, µM, without a hit: at the highest dose activation, hits mostly activators; hit rate 0.02% among 420,000; AID 602332; also: potency is read from the fitted curve at half-maximal effect; series mostly up to about 76 µM; % of control where 0% means no effect; nearly all actives have a fitted effect of over 35% in size
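Stably transfected U87-MG human glioma cells carrying a GRP78-based luminescent sensor were seeded at 1000 cells/well, pin-dosed with compounds and incubated 16 h. Luciferase reagent was then added, and end-point luminescence was read after 10 min at room temperature.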
* marks the source's active call; other numbers are inactive results; ? = inconclusive; nt = no result given; ! = not confirmed by another sample. Only some compounds are listed: those with a hit (about 2.3% of all), similar ones and a draw of the others. Calls follow the shape of the dose curve; as a rule, active = well fitted curve in the direction sought with a large enough effect; inconclusive = small, poorly fitted or top-dose-only effect, or another doubt; inactive = no such curve, though single readings can be large; an effect the other way counts as inactive or inconclusive.

Letters: A = Mito fusion yeast; B = Nrf2 activator; C = Nrf2 inh; D = A549 viability; E = miR-21 reporter; F = GRP78 ERSR act
#1 C=CCOC(Cn1ccnc1)c1ccc(Cl)cc1Cl (stereo not given)
  A: 25µM* | B: -1% | C: 5% | D: 8% | E: nt | F: 4%

#2 Clc1ccc(COC(Cn2ccnc2)c2ccc(Cl)cc2Cl)c(Cl)c1 (stereo not given)
  A: 3.5µM* | B: 5% | C: ? | D: -5% | E: ? | F: -2%

#3 CN(CCc1ccc(Cl)c(Cl)c1)[C@@H]1CCCC[C@@H]1N1CCCC1
  A: nt | B: nt | C: nt | D: nt | E: nt | F: -3%

#4 CCCc1nc2ccc(Br)cc2c(=O)n1-c1ccc([N+](=O)[O-])c(C(F)(F)F)c1
  A: -4% | B: 6% | C: 21µM* | D: -23% | E: ? | F: -6%

#5 CCc1nc2ccc(Br)cc2c(=O)n1-c1ccccc1C(F)(F)F
  A: nt | B: 0% | C: 4% | D: -5% | E: nt | F: -4%

#6 N=c1c2c(n(Cc3ccc(Cl)cc3Cl)c3c1CCC3)CCCC2
  A: 1% | B: 7% | C: 13µM* | D: ? | E: ? | F: 1%

#7 CCn1nc(C)c(CN2CCCC(C(=O)c3cccc(OC(C)C)c3)C2)c1C (stereo not given)
  A: -1% | B: 0% | C: 10µM* | D: 0% | E: 19% | F: -2%

#8 Cc1cccc(CN2CCCC(C(=O)c3cccc(OC(C)C)c3)C2)n1 (stereo not given)
  A: -5% | B: 6% | C: -19% | D: -3% | E: 0% | F: 1%

#9 CCOC(=O)Cn1cc([N+](=O)[O-])nc1[N+](=O)[O-]
  A: -20% | B: 6% | C: -27% | D: -10% | E: 3% | F: -17%

#10 NC(=O)COc1c(F)cc(SCCNS(=O)(=O)c2ccccc2)cc1F
  A: 1% | B: nt | C: nt | D: nt | E: nt | F: -3%

#11 O=C(O)C(F)(F)S(=O)(=O)O
  A: 3.2µM* | B: 1% | C: -9% | D: -5% | E: 4% | F: 3%

#12 O[C@@H]1CCCC[C@@H]1N1CCC(c2ccccc2)CC1
  A: nt | B: nt | C: nt | D: nt | E: nt | F: -3%

#13 COc1ccc(C=C2C(=O)N(C)C(=O)N(C)C2=O)cc1CSc1ccccn1
  A: 2% | B: 21% | C: -6% | D: 11% | E: -10% | F: 4%

#14 COc1ccc([N+](=O)[O-])cc1CSc1ccccn1
  A: -1% | B: 11µM* | C: 26% | D: 8% | E: -17% | F: 2%

#15 O=C(c1ccc2c(c1)N(Cc1c(F)cccc1Cl)C(=O)c1ccccc1S2)N1CCC2(CC1)OCCO2
  A: nt | B: 0% | C: 21µM* | D: ? | E: -3% | F: 2%

Down the list, as entered above.
A549 viability, compounds 7–13: 0%, -3%, -10%, nt, -5%, nt, 11%
miR-21 reporter, compounds 7–13: 19%, 0%, 3%, nt, 4%, nt, -10%

Only Nrf2 inh and Nrf2 activator, for some of the entries so far:
| entry | molecule | Nrf2 inh | Nrf2 activator |
| --- | --- | --- | --- |
| 7 | CCn1nc(C)c(CN2CCCC(C(=O)c3cccc(OC(C)C)c3)C2)c1C (stereo not given) | 10µM* | 0% |
| 8 | Cc1cccc(CN2CCCC(C(=O)c3cccc(OC(C)C)c3)C2)n1 (stereo not given) | -19% | 6% |

Following part
Letters: A = Mito fusion yeast; B = Nrf2 activator; C = Nrf2 inh; D = A549 viability; E = miR-21 reporter; F = GRP78 ERSR act
#16 CCN1C(=O)c2ccccc2Sc2ccc(C(=O)N3CCC4(CC3)OCCO4)cc21
  A: 4% | B: 1% | C: ? | D: -4% | E: -6% | F: -7%

#17 O=Cc1cn(Cc2ccccc2F)c2ccccc12
  A: 6% | B: 5% | C: -18% | D: -13% | E: 8% | F: -3%

#18 CC(=O)c1cn(Cc2ccccc2F)c2ccccc12
  A: 3% | B: 3% | C: 5.8µM* | D: -8% | E: 17% | F: 0%

#19 O=C1CCCC2C3CCCN4CCCC(CN12)C34 (stereo not given)
  A: -1% | B: 0% | C: 5% | D: 0% | E: -2% | F: -2%

#20 Cc1ccc2c(c1)C(c1ccccc1)=NCC(=O)N2C
  A: nt | B: 3% | C: 9.2µM* | D: -3% | E: nt | F: -1%

#21 Cc1occc1C(=O)Nc1ccccc1
  A: nt | B: nt | C: nt | D: nt | E: nt | F: 2%

#22 Cc1cc(C(=O)Nc2ccc(CC(=O)O)cc2)c(C)o1
  A: -3% | B: -3% | C: 5.2µM* | D: 4% | E: 24% | F: -12%

#23 C1=C(c2c[nH]c3ccccc23)CCN(Cc2ccccc2)C1
  A: -16% | B: 7% | C: 6.5µM* | D: -6% | E: 25% | F: 6%

#24 O=C(CC1CCCCC1)N1CCC(c2nc(-c3ccc(S(=O)(=O)N4CCCC4)cc3)no2)CC1
  A: 1% | B: 0% | C: 21µM* | D: -22% | E: -2% | F: -3%

#25 O=C(c1cc(S(=O)(=O)N2CCCCC2)ccc1F)N1CCC2(CC1)OCCO2
  A: 0% | B: -1% | C: 4% | D: 3% | E: -5% | F: -2%

#26 S=C1NC2(CCCCC2)NC12CCCCC2
  A: -14% | B: 0% | C: -29% | D: -2% | E: -7% | F: -5%

#27 Cc1ccc(NC(=O)COc2ccc(-c3nn(C)c(=O)c4ccccc34)cc2)c(C)c1
  A: nt | B: 0% | C: 18µM* | D: -15% | E: 9% | F: nt

#28 CCN(CC)C(=O)c1ccc(NC(=O)COc2ccc(-c3nn(C)c(=O)c4ccccc34)cc2)cc1
  A: -5% | B: 4% | C: ? | D: -7% | E: 14% | F: 1%

#29 Cc1cc(NC(=O)CCl)nn1C
  A: -2% | B: ? | C: ? | D: -18% | E: 25% | F: 3%

#30 CCOC(=O)C(NC(=O)C(Cc1ccc(N(CCCl)CCCl)cc1)NC(C)=O)C(C)C (stereo not given)
  A: 4µM* | B: 0% | C: -10% | D: 4% | E: 0% | F: -3%

Following part.
Letters: A = Mito fusion yeast; B = Nrf2 activator; C = Nrf2 inh; D = A549 viability; E = miR-21 reporter; F = GRP78 ERSR act
#31 CN1C(=O)c2ccccc2Sc2ccc(C(=O)N3CCC4(CC3)OCCO4)cc21
  A: 2% | B: 0% | C: -1% | D: -6% | E: -4% | F: -4%

#32 CCC1=Nc2cc(C(=O)N3CCC4(CC3)OCCO4)ccc2Sc2ccc(Br)cc21
  A: 18µM* | B: 0% | C: -4% | D: -15% | E: -1% | F: -6%

#33 O=c1cccc2n1CC1CC2CN(Cc2c(F)cccc2Cl)C1 (stereo not given)
  A: 9% | B: 0% | C: -6% | D: -1% | E: -4% | F: -5%

#34 O=c1cccc2n1CC1CC2CN(Cc2cccc(Cl)c2Cl)C1 (stereo not given)
  A: 5% | B: 2% | C: 21µM* | D: -4% | E: 25% | F: -3%

#35 Cn1cccc1C(=O)OCC(=O)NCc1cccs1
  A: nt | B: 3% | C: ? | D: 12% | E: nt | F: -1%

#36 O=C(NCNC(=O)N[C@H]1C(=O)NC(=O)N1CO)N[C@H]1C(=O)NC(=O)N1CO
  A: nt | B: nt | C: nt | D: nt | E: nt | F: -3%

#37 Cc1c(C(=O)c2cccc3ccccc23)c2cccc3c2n1[C@H](CN1CCOCC1)CO3
  A: 9.2µM* | B: 0% | C: ? | D: ? | E: nt | F: ?

#38 CC(C)CC1C(=O)N2CCC[C@H]2[C@]2(O)O[C@](NC(=O)[C@@H]3C=C4c5cccc6[nH]c(Br)c(c56)C[C@H]4N(C)C3)(C(C)C)C(=O)N12 (stereo not given in full)
  A: nt | B: nt | C: 16µM* | D: -5% | E: nt | F: -3%

#39 CC(C)[C@@]1(NC(=O)[C@@H]2C[C@H]3c4cccc5[nH]cc(c45)C[C@@H]3N(C)C2)O[C@]2(O)[C@H]3CCCN3C(=O)CN2C1=O
  A: nt | B: nt | C: nt | D: nt | E: nt | F: -4%

#40 CC(C)[C@@]1(NC(=O)[C@@H]2C[C@@H]3c4cccc5[nH]cc(c45)C[C@H]3N(C)C2)O[C@@]2(O)[C@@H]3CCCN3C(=O)[C@H](Cc3ccccc3)N2C1=O
  A: 23µM*! | B: 0% | C: -6% | D: 0% | E: -1% | F: -1%

#41 COc1ccccc1CNC(=O)CCC(=O)N1C[C@H]2C[C@@H](C1)c1cccc(=O)n1C2
  A: -2% | B: 1% | C: 8% | D: 3% | E: 1% | F: 0%

#42 COc1ccc2c(c1)[nH]c1c(C)nccc12
  A: -6% | B: 0% | C: 23µM* | D: -7% | E: nt | F: -6%

#43 CN(Cc1cccc(-c2cccnc2)c1)C(=O)Oc1ccc([N+](=O)[O-])cc1
  A: nt | B: -1% | C: nt | D: nt | E: nt | F: nt

#44 CCCCCCC(=O)N/N=C/c1c(O)n(C(C)CC)c(=S)[nH]c1=O (stereo not given)
  A: 1% | B: 0% | C: 15µM* | D: -6% | E: 24% | F: -2%

#45 O=C(O)CNC(=O)C(CS)Cc1ccccc1 (stereo not given)
  A: -43% | B: 0% | C: 10µM* | D: -10% | E: nt | F: 0%

Single values from the entries so far.
CN1C(=O)c2ccccc2Sc2ccc(C(=O)N3CCC4(CC3)OCCO4)cc21 – GRP78 ERSR act = -4%
O=c1cccc2n1CC1CC2CN(Cc2cccc(Cl)c2Cl)C1 (stereo not given) – Mito fusion yeast = 5%
